{
  "source": "ChEMBL document CHEMBL2203047",
  "about": "“Discovery and SAR of a novel series of non-MPEP site mGlu₅ PAMs based on an aryl glycine sulfonamide scaffold” (Bioorg Med Chem Lett, 2012)",
  "key": {"[1]": {"experiment": "Ratio of AUC in rat hepatic portal vein blood to AUC in rat plasma", "assay_type": "ADME, cell-free", "details": "in vivo"}, "[2]": {"experiment": "Hepatic extraction ratio in Sprague-Dawley rat at 10 mg/kg, po", "assay_type": "ADME, organism-based", "design": "dose 10 mg/kg, route oral", "details": "in vivo, read-out: ERH"}},
  "data": [
    {"smiles": "CS(=O)(=O)N(CC(=O)NCC1CC1)c1cc(C(F)(F)F)ccc1Cl", "values": [
      {"measurement": "Ratio AUC", "setting": "[1]", "value": 52},
      {"measurement": "hepatic extraction ratio", "setting": "[2]", "value": 0.98}
    ]}
  ]
}
